Experimental data taken from ChEMBL document CHEMBL1126449.

Target: T1, Acetylcholinesterase (Mus musculus, UniProt P21836)
T1 sequence (P21836 whole entry): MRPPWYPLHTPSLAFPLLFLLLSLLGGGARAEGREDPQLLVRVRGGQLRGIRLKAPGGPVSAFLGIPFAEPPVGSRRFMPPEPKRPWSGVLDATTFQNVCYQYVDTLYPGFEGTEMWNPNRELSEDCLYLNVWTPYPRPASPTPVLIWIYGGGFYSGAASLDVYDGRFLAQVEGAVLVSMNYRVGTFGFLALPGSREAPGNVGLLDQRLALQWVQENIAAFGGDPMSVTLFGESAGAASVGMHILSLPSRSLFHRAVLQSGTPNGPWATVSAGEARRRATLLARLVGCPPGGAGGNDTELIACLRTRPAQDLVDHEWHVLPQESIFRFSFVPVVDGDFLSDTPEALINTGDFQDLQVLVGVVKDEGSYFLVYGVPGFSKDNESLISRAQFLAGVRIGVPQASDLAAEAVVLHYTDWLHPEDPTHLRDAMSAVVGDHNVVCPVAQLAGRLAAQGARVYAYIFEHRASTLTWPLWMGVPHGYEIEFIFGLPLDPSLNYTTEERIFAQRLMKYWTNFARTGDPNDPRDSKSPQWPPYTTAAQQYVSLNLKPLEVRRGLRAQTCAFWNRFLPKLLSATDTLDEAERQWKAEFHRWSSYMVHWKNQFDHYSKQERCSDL
Test: biochemical

O=C1c2ccccc2CC1CC1CCN(Cc2ccccc2)CC1 (stereo unspecified)
IC50: 150 nM
